Assay [1] addresses T1, KDR (VEGFR-2, Flk-1), full-length receptor on cells (human, UniProt P35968 20-1356).
T1 construct: whole, on cells; endogenous on HUVECs in the functional assays; also called VEGF receptor 2
The assay is described as follows: saturation binding of peptide/neutravidin-HRP complex to KDR-transfected 293H cells; P6-F-XB, one experiment.

By UniProt entry, the sequences of proteins in these tests, tags left out. Residues count along the entry.
UniProt P35968, 20-1356: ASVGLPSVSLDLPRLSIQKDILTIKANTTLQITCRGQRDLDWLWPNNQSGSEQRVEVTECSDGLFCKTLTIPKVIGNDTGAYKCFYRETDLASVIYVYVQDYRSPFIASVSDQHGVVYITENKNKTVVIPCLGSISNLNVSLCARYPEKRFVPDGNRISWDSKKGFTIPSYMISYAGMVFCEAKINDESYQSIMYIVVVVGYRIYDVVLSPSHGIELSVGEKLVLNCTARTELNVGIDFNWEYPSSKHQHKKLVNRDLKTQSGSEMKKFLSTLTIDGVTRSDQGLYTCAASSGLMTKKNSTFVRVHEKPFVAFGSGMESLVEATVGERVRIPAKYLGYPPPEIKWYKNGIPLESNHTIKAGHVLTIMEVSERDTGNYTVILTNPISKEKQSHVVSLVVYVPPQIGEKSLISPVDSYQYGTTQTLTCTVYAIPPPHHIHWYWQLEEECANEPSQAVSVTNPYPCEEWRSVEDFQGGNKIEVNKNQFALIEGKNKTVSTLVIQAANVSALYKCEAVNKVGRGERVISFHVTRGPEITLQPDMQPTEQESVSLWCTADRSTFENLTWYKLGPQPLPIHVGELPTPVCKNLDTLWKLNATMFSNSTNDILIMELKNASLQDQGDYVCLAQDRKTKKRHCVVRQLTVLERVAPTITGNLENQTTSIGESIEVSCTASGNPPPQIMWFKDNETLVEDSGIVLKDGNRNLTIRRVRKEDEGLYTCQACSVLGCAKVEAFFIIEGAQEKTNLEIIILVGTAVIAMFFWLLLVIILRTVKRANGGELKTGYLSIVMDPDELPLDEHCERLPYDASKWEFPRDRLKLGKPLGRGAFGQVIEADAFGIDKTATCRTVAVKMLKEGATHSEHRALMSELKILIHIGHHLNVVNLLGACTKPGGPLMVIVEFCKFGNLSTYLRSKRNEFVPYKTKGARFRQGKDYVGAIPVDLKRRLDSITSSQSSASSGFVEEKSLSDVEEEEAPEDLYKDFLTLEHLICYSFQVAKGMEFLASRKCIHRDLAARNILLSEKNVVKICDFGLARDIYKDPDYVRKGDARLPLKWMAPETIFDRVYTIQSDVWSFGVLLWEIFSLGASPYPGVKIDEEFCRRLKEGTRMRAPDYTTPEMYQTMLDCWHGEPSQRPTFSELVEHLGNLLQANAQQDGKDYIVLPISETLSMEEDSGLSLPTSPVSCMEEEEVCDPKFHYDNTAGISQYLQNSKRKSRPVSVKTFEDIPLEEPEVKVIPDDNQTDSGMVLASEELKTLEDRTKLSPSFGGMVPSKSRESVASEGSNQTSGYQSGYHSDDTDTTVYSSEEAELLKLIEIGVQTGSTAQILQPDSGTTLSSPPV
UniProt P35968, 20-764, stated change not applied: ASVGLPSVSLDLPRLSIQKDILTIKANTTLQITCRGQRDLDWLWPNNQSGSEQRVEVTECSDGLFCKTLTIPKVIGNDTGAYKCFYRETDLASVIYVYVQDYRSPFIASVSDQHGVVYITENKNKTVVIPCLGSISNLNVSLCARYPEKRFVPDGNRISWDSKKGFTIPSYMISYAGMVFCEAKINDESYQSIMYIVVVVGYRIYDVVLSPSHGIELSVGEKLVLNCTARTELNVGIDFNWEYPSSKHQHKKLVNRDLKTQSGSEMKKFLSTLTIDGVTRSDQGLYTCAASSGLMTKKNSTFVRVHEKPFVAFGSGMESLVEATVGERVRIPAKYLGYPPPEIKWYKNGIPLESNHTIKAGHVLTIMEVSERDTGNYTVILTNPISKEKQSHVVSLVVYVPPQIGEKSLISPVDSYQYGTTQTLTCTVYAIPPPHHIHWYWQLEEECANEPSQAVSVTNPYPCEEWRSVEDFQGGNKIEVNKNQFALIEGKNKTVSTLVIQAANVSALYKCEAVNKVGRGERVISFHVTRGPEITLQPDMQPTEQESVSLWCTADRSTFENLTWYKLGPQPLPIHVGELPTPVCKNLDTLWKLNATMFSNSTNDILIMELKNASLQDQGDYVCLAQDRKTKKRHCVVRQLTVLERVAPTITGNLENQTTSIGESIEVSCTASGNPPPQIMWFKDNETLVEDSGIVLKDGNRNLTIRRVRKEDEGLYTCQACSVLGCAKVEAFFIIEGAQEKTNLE

The target in assay [2] is T1, KDR (VEGFR-2, Flk-1), full-length …. The experiment in a line: displacement of P12-XB/streptavidin-HRP complex (5.5 nM) from KDR-expressing cells.
The target of assay [3] is T2, KDR-Fc (chimeric fusion of Ig Fc region with human KDR, R&D Systems #357-KD-050) (human, UniProt P35968 20-764).
T2 construct: Bought; also called KDR Fc fusion; not shown: Ig Fc region of the bought chimera
The experiment in a line: fluorescence polarisation, fluoresceinated monodentate peptide against KDRFc. In general terms: Fluorescence polarisation rises when a labelled molecule tumbles more slowly, as on binding a larger partner.

For assay [4], the target named is T1, KDR (VEGFR-2, Flk-1), full-length …. The experiment in a line: saturation binding of peptide/neutravidin-HRP complex, KDR- minus mock-transfected 293H cells. The protocol: After incubation at room temperature, plates were transferred to 4° C. for another half-hour incubation.

6 molecules from patent US20050147555A1 (BRACCO SUISSE, published 2005) can be followed below.

As usually defined, the Kd is the constant that tells how readily two partners part at equilibrium. For orientation: IC50 means the concentration that gives 50% inhibition.

As for VCWEDSWGGEVCFRYDPGGGK (other, Ac-; C2-C12 disulfide; K21(Biotin-JJ); -NH2) [P6-F-XB on neutravidin-HRP], in assay [1], binding was characterised by a dissociation constant (Kd) of 6.94 nM.

The molecule AGPTWCEDDWYYCWLFGTGGGK (N-acetyl; Cys6-Cys13 disulfide; C-terminal amide) [P12-G] yielded an IC50 in assay [2] of 13 nM.

On to AGPKWCEEDWYYCMITGTGGGK (fluorescein on the C-terminal lysine; C-terminal amide) [P5, fluoresceinated monodentate peptide], for which the Kd in assay [3] was 280 nM.

B1: P12-XB (4X) on neutravidin-HRP (other)
peptide: AGPTWCEDDWYYCWLFGTGGGK
modifications: Ac-; C6-C13 disulfide; K22(Biotin-JJ); -NH2
notes: Peptides held on the four biotin sites of neutravidin-HRP; also called tetrameric P12-XB; P12-XB Tetramer
In the case of B1, binding in assay [4] was put at a Kd of 4.03 nM.

B2: P13-XB (4X) on neutravidin-HRP (other)
peptide: AQDWYYDEILSMADQLRHAFLSGGGGGK
modifications: Ac-; K28(Biotin-JJ); -NH2
notes: Peptides held on the four biotin sites of neutravidin-HRP; also called tetrameric P13-XB; P13-XB Tetramer
On to B2, for which, in assay [4], the Kd worked out at 1.81 nM.

For GDSRVCWEDSWGGEVCFRYDPGGGK (fluorescein on the C-terminal lysine; C-terminal amide) [P6, fluoresceinated monodentate peptide], in assay [3], the equilibrium dissociation constant (Kd) came to 69 nM.
